Measurements taken from patent publication US20050058634A1.
pKd: −log10 of the molar value.

Key:
[1] = molecular target: CI-MPR on L6 myoblast cells; test: cell-based or functional assay
[2] = molecular target: CI-MPR on L6 myoblast cells; test: estimated from the half maximal value of uptake into L6 myoblasts (GAA activity in lysates)

Recombinant human acid alpha-glucosidase (rhGAA), unmodified (from UniProt P10253 70-952) (enzyme)
uptake by L6 myoblasts (GAA activity in cell lysates), concentration at which uptake approached saturation [1]: 500 nM | pKd [2]: 7.00
